Assay results taken from patent US20040185071A1, “Oil-based compositon comprising sterols” (priority 2001, published 2004).

Assay: Evaluation of the solubility of sterols (Generol, a phytosterol) in various oils, visual after 24 hours
Type: physicochemical
Conditions: visual evaluation after 24 hours

Glycerol monocapric acid ester
Good: Solubility Generol ® 1% (1% by weight Generol dissolved in the glycerol fatty acid ester) | Solubility Generol ® 3% (3% by weight Generol dissolved in the glycerol fatty acid ester) | Solubility Generol ® 5% (5% by weight Generol dissolved in the glycerol fatty acid ester) | Solubility Generol ® 7% (7% by weight Generol dissolved in the glycerol fatty acid ester)
